## Apparent affinities of Ab-14 variants for a coronavirus HR2 peptide

Data: MIT Lincoln Laboratory AlphaSeq set, Li et al. 2023, doi:10.1038/s41467-023-39022-2, as distributed in FLAb.

Target peptide (SARS-CoV-2 spike, HR2 region): PDVDLGDISGINAS

The variants keep the heavy chain, the linker and the frameworks of Ab-14 (scFv order VH, a (GGGGS)3 linker, VL).
VH: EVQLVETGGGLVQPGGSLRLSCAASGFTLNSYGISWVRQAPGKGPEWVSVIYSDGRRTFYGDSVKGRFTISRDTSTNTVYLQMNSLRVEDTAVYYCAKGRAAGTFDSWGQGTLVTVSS
VL: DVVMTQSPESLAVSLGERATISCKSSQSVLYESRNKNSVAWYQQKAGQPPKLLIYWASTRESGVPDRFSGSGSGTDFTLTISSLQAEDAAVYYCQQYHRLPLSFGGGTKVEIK

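The parent was found by panning a naive human phage display library on the peptide. The variants were designed computationally from a first round of random CDR variants and then made and measured. Their group label is 14L_En_Gibbs (En: ensemble of fine-tuned language models; Gibbs: Gibbs sampling). In AlphaSeq, yeast of one mating type display the scFv and yeast of the other type display the target. Pairs that bind mate more often; barcode pairs of the diploids are counted by sequencing. A regression on co-assayed BCL2-family reference pairs converts the normalised counts of each replicate to an apparent Kd. Mating was done six times.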

Each variant is given by its three light chain CDRs, as the data file delimits them; those of the parent are KSSQSVLYESRNKNSVA, WASTRES, QQYHRLPLS.
Numbers give log10(Kd / nM), so 0 is 1 nM and 3 is 1 µM. Smaller is tighter.
"nd" means that the variant was in the library but no mating with the target was seen in that replicate; the authors take this as a sign of poor binding, and no number exists.
The authors averaged sequences with at least three values out of six and counted those with two or fewer as poor binders.
The range of this assay differs from that of the first round, and the authors advise against merging the two.
Nonspecific signal, from three strains lacking the peptide, appeared in 4% of pairings of all light chain designs, centred on 2.64 (5% of these signals below 1.59); values are not corrected for it. For each scFv, signals with the empty controls are counted beside the result, with their mean in brackets.

{"CDR-L1": "KISINQMHYNKMRSNIA", "CDR-L2": "NTNQKAM", "CDR-L3": "QQYFHLPLM", "log10 Kd (nM) by replicate": "1.84 / 1.38 / 0.77 / 1.10 / 0.81 / 1.33", "control signals": "0 of 18"}
{"CDR-L1": "SLHMYTLTEKNANNSIA", "CDR-L2": "EKSYRAI", "CDR-L3": "QQYSHLPLV", "log10 Kd (nM) by replicate": "2.08 / 2.20 / 1.56 / 1.74 / 1.84 / 1.84", "control signals": "2 of 18 (2.35)"}
{"CDR-L1": "KLESRQYHFGADHQNIA", "CDR-L2": "DAHISMN", "CDR-L3": "QQYMHLPFT", "log10 Kd (nM) by replicate": "0.75 / 0.67 / 1.03 / 0.99 / 0.58 / 1.02", "control signals": "2 of 18 (2.39)"}
{"CDR-L1": "SMMFDTSDNYHERNNIA", "CDR-L2": "EQATIMA", "CDR-L3": "QQYSWLPLS", "log10 Kd (nM) by replicate": "nd / nd / nd / nd / nd / nd", "control signals": "0 of 18"}
{"CDR-L1": "NLNVSEDQWPLSKNAIA", "CDR-L2": "QTTCRVL", "CDR-L3": "QQYAHLPLS", "log10 Kd (nM) by replicate": "0.98 / 1.05 / 0.71 / 0.54 / 0.72 / 0.79", "control signals": "1 of 18 (2.15)"}
{"CDR-L1": "KLGYPSYGEVNGKHNIA", "CDR-L2": "EMDQLTF", "CDR-L3": "QQYSHLPLS", "log10 Kd (nM) by replicate": "1.03 / 0.52 / 0.60 / 0.57 / 0.55 / 0.76", "control signals": "0 of 18"}
{"CDR-L1": "RIEDHHAEGEMRHNSIA", "CDR-L2": "EESYRMD", "CDR-L3": "QHYSRLPLA", "log10 Kd (nM) by replicate": "0.59 / 0.61 / 0.26 / -0.07 / 0.73 / 0.31", "control signals": "1 of 18 (3.16)"}
{"CDR-L1": "HMRSGSVEQWNIENAVA", "CDR-L2": "EMSEVYR", "CDR-L3": "QQYVSLPLS", "log10 Kd (nM) by replicate": "nd / nd / nd / nd / nd / nd", "control signals": "0 of 18"}
{"CDR-L1": "RIDPYEAMLGKNKESIA", "CDR-L2": "EAAVTLT", "CDR-L3": "QQYARLPLS", "log10 Kd (nM) by replicate": "nd / nd / nd / nd / nd / 0.45", "control signals": "0 of 18"}
{"CDR-L1": "GIHSQMVGTIAVFQNVA", "CDR-L2": "NANTRLM", "CDR-L3": "QQYSRLPLS", "log10 Kd (nM) by replicate": "1.07 / 1.48 / 0.90 / -0.24 / 1.84 / 1.19", "control signals": "1 of 18 (0.95)"}
{"CDR-L1": "KIELDLTRYNNSYSAIA", "CDR-L2": "HETQKAQ", "CDR-L3": "QQYSRLPLV", "log10 Kd (nM) by replicate": "2.31 / 1.34 / 2.01 / 1.35 / 1.85 / 1.47", "control signals": "0 of 18"}
{"CDR-L1": "KLQNLMGTMGKQNQAIA", "CDR-L2": "QGAITRV", "CDR-L3": "QQYQRLPLW", "log10 Kd (nM) by replicate": "nd / nd / nd / nd / nd / nd", "control signals": "0 of 18"}
{"CDR-L1": "TLGNQPTEMRDNKHAVA", "CDR-L2": "DDHQRDR", "CDR-L3": "QQYMRLPLS", "log10 Kd (nM) by replicate": "0.19 / 0.16 / 0.42 / 0.28 / 0.12 / 0.23", "control signals": "0 of 18"}
{"CDR-L1": "QITQVQQYDTPNTYNVA", "CDR-L2": "DARVSGR", "CDR-L3": "QQYSQLPLT", "log10 Kd (nM) by replicate": "nd / nd / nd / nd / nd / 1.65", "control signals": "0 of 18"}
{"CDR-L1": "QIFGKLQEHGNQKANVA", "CDR-L2": "QGVESRN", "CDR-L3": "QQYFRLPLT", "log10 Kd (nM) by replicate": "0.24 / nd / 1.00 / nd / 0.26 / 1.50", "control signals": "1 of 18 (0.52)"}
{"CDR-L1": "KISDMMQTDMGRMSAVA", "CDR-L2": "DDDVAND", "CDR-L3": "QQYARLPLA", "log10 Kd (nM) by replicate": "1.93 / 1.67 / 2.99 / 1.71 / 1.27 / 2.16", "control signals": "2 of 18 (3.19)"}
{"CDR-L1": "QLDLRMNEQGMQPAAIA", "CDR-L2": "GATNRHT", "CDR-L3": "QQYQKLPLS", "log10 Kd (nM) by replicate": "0.40 / 0.21 / 1.10 / 0.61 / 0.96 / 1.09", "control signals": "0 of 18"}
{"CDR-L1": "QITEEQSMRTQGNWNIA", "CDR-L2": "QAEQKVH", "CDR-L3": "QQYNRLPLA", "log10 Kd (nM) by replicate": "2.33 / 0.25 / 0.95 / 1.11 / 0.81 / 0.29", "control signals": "0 of 18"}
{"CDR-L1": "NISINQMDEYKMRSNIA", "CDR-L2": "NTSWKAM", "CDR-L3": "QQYFHLPLM", "log10 Kd (nM) by replicate": "0.45 / 0.46 / 0.15 / 0.37 / 0.22 / 0.36", "control signals": "1 of 18 (2.95)"}